{
  "source": "patent US6528619",
  "target": "cell surface-associated uPA receptor (uPAR) on PMA-stimulated human U937 cells (human), Q03405",
  "assay": "flow cytometry, competition with FITC-pro-uPA on U937 cells",
  "data": [
    {"binder": "DCLNGGTAVSNKYFSNIHWCN (peptide, UniProt P00749 32-52, looked up, modifications not checked)", "note": "[uPA12-32 [C19A], P00749 32-52]", "values": [
      {"measurement": "molar excess for 50% inhibition of the binding of uPA (fold molar excess)", "result": 15000}
    ]}
  ]
}
